Measured values taken from ChEMBL document CHEMBL5647699, “Discovery of a chemical probe for PRDM9” (Nat Commun, 2019).

Amino acid sequences for entries named in this document (tags omitted). A change or cut given only in a name is not applied to a line headed by its entry.
UniProt Q9NQV7: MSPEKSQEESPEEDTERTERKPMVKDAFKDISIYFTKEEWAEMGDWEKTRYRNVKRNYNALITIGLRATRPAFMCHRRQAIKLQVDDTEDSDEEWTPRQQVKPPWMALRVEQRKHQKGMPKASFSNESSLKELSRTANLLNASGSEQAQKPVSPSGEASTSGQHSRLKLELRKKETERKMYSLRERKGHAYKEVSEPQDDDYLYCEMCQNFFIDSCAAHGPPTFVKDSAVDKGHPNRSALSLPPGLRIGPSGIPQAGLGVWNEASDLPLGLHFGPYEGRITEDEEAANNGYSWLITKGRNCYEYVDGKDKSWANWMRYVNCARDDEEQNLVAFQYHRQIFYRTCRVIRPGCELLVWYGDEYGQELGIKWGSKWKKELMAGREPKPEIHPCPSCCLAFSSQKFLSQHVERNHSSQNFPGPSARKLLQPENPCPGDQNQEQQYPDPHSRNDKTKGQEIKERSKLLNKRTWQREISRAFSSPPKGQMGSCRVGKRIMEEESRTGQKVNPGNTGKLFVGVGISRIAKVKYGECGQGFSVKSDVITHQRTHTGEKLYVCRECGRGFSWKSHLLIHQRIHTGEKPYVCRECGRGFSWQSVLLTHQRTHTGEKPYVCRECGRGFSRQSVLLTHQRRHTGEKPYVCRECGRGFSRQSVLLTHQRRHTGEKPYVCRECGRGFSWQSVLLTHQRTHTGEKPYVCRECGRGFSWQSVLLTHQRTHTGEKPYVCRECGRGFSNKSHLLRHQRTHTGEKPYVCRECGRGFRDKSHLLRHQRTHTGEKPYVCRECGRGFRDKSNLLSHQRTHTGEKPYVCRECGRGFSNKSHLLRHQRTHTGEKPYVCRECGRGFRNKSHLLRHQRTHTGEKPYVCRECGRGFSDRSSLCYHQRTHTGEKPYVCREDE

Target: Histone-lysine N-methyltransferase PRDM9 (Homo sapiens) (UniProt Q9NQV7)
Assay: Binding affinity to PRDM9 (unknown origin) (195 to 415 residues) assessed as binding rate constant (Kon) measured at 60 to 120 secs in presence of SAM by surface plasmon resonance assay
Conditions: time 60-120 sec

K: 1.2 10^6/M/s
Structure (SMILES): COc1cc(OC)cc(-c2noc(N3CCN(C)C4(CCN(c5ccnc(C)c5)CC4)C3)n2)c1
